Reference: patent US10881712B2, “Neuroprotective agents derived from spider venom peptides” (THE UNIVERSITY OF QUEENSLAND, priority 2015, dated 2021)

Assays:
Type in all cases: cell-based
F350A mutant rASIC1a = molecular target: T1, F350A mutant rASIC1a (Rattus norvegicus, UniProt P55926, F350A); assay: TEVC on Xenopus oocytes expressing F350A mutant rASIC1a; conditions: concentration dependent effects, FIG. 3D
T1 construct: expressed in transfected cells; host or cells: Xenopus oocytes
T1 sequence (P55926 1-526 F350A): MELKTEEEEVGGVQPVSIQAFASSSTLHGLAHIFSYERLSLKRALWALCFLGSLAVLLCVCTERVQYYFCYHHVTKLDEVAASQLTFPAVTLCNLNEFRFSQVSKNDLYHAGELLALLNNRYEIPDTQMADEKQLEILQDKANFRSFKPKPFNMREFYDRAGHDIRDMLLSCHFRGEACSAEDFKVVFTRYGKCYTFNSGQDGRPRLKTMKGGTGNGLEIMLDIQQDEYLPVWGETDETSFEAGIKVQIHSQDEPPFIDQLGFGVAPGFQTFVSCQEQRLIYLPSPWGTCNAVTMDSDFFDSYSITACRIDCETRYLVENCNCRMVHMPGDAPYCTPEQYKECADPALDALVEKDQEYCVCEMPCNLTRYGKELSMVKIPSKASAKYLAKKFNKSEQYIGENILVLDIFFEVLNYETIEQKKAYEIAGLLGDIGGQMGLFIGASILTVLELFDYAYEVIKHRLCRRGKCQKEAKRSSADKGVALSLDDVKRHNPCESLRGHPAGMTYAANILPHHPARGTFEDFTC
Protocol: (§1) The ability of the peptides of the invention to modulate ASIC currents was assessed using two-electrode voltage clamp (TEVC) electrophysiology experiments performed on Xenopus laevis oocytes expressing homomeric ASIC channels. Xenopus oocytes are widely used as an expression system for functional characterisation of ion channel modulators. TEVC allows measurement of whole-cell ion channel currents while controlling the membrane potential.
(§2) Oocytes were harvested from anaesthetised female X. laevis then defolliculated by treatment with collagenase (Sigma, type I). Oocytes were injected with in vitro transcribed ASIC cRNA (capped RNA). Oocytes were kept at 17-18° C. in ND96 solution containing 96 mM NaCl, 2 mM KCl, 1.8 mM CaCl2, 2 mM MgCl2, 5 mM HEPES, 5 mM pyruvic acid, 50 μg/ml gentamicin (pH 7.4), and fetal horse serum (2.5%), and experiments were performed at room temperature (21-22° C.) 1-3 days after cRNA injection. Oocytes were clamped at −60 mV (Warner OC-725C oocyte clamp; Warner Instruments, CT, USA) using two standard glass microelectrodes of 0.5-2 MΩ resistance when filled with 3 M KCl. Data acquisition and analysis were performed using pCLAMP software, Version 10 (Axon Instruments, CA, USA). Currents were elicited by a drop in pH from 7.45 to 6.0 using a microperfusion system to allow rapid solution exchange. […]

hASIC1a = molecular target: T2, hASIC1a (Homo sapiens, UniProt P78348); assay: TEVC on Xenopus laevis oocytes expressing homomeric hASIC1a
T2 construct: expressed in transfected cells; host or cells: Xenopus laevis oocytes injected with cRNA
T2 sequence (P78348 1-528): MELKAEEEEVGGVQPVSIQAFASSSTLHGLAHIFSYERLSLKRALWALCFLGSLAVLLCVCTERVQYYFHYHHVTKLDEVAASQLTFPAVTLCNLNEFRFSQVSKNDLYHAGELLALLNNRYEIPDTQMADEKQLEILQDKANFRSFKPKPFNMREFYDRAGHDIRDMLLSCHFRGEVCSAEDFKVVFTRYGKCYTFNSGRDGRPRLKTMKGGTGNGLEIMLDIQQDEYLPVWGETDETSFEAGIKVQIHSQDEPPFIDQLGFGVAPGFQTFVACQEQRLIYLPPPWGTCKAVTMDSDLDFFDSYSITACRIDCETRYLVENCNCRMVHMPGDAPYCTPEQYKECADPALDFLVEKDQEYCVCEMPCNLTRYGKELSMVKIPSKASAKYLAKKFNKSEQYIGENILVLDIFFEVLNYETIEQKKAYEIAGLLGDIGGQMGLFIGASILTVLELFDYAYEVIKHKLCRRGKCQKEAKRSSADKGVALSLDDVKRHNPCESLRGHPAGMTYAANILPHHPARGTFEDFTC
Protocol: as §1
Oocytes were harvested from anaesthetised female X. laevis then defolliculated by treatment with collagenase (Sigma, type I). Oocytes were injected with in vitro transcribed ASIC cRNA (capped RNA). Oocytes were kept at 17-18° C. in ND96 solution containing 96 mM NaCl, 2 mM KCl, 1.8 mM CaCl2, 2 mM MgCl2, 5 mM HEPES, 5 mM pyruvic acid, 50 μg/ml gentamicin (pH 7.4), and fetal horse serum (2.5%), and experiments were performed at room temperature (21-22° C.) 1-3 days after cRNA injection. Oocytes were clamped at −60 mV (Warner OC-725C oocyte clamp; Warner Instruments, CT, USA) using two standard glass microelectrodes of 0.5-2 MΩ resistance when filled with 3 M KCl. Data acquisition and analysis were performed using pCLAMP software, Version 10 (Axon Instruments, CA, USA). Currents were elicited by a drop in pH from 7.45 to 6.0 using a microperfusion system to allow rapid solution exchange. All experiments were performed using ND96 solution spiked with 0.1% BSA in order to minimise adsorption of peptides to plastic tubing.

rASIC2a = molecular target: T3, rASIC2a (Rattus norvegicus, UniProt Q62962); assay: TEVC on Xenopus oocytes expressing rASIC2a
T3 construct: expressed in transfected cells; host or cells: Xenopus laevis oocytes injected with cRNA
T3 sequence (Q62962 1-512): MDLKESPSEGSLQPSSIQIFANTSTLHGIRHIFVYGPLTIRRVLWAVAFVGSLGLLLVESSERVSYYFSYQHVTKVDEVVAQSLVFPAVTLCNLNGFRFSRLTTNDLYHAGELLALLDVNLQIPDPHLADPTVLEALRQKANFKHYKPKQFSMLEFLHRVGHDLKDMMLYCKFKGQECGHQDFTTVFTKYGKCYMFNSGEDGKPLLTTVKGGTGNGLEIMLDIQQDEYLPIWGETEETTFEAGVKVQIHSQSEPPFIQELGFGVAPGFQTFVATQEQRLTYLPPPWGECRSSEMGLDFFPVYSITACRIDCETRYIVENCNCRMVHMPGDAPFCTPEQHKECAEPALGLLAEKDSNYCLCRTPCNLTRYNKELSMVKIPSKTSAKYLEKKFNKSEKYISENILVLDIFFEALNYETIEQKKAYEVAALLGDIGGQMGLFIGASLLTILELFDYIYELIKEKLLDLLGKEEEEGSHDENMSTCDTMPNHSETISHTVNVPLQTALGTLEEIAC
Protocol: as §1, §2

rASIC3 = molecular target: T4, rASIC3 (Rattus norvegicus, UniProt O35240); assay: TEVC on Xenopus oocytes expressing rASIC3
T4 construct: expressed in transfected cells; host or cells: Xenopus laevis oocytes injected with cRNA
T4 sequence (O35240 1-533): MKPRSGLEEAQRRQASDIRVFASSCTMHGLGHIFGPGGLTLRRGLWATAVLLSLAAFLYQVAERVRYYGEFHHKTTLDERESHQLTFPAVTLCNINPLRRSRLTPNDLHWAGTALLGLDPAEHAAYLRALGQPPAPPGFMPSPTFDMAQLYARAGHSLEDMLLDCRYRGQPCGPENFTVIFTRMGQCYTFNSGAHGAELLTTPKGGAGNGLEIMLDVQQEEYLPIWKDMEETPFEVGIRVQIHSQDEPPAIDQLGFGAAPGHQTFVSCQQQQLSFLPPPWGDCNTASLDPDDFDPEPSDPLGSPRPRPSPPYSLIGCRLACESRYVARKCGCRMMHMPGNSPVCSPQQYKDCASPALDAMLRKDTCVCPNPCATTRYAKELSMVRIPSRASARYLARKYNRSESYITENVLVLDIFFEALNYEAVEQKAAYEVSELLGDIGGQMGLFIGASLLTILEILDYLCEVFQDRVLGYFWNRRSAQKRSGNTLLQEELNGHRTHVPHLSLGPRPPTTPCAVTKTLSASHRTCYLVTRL
Protocol: as §1, §2

Structure (SMILES): CC[C@H](C)[C@@H]1NC(=O)[C@@H](NC(=O)[C@H](CCC(=O)O)NC(=O)[C@H](CC(N)=O)NC(=O)[C@@H](N)CO)CSSC[C@@H]2NC(=O)[C@@H]3CSSC[C@@H](C(=O)N[C@H](C(=O)N4CCC[C@H]4C(=O)N[C@H](C(=O)N4CCC[C@H]4C(=O)NCC(=O)N[C@@H](Cc4ccccc4)C(=O)N[C@H]4CSSC[C@@H]5NC(=O)[C@@H]6CSSC[C@@H](C(=O)N[C@@H](C)C(=O)N7CCC[C@H]7C(=O)N[C@H](C(=O)N[C@H](C(=O)O)[C@@H](C)O)[C@@H](C)CC)NC(=O)[C@H](C(C)C)NC(=O)[C@H](CO)NC(=O)[C@H](CO)NC(=O)[C@H](CCCCN)NC(=O)[C@H](CC(N)=O)NC(=O)CNC(=O)[C@H](CO)NC(=O)[C@H](CCCNC(=N)N)NC(=O)[C@H](CCCCN)NC(=O)[C@H](Cc7c[nH]c8ccccc78)NC(=O)[C@H](CSSC[C@H](NC(=O)[C@H](CCC(N)=O)NC(=O)[C@H](CCCCN)NC(=O)[C@H](Cc7c[nH]c8ccccc78)NC(=O)[C@H](CCCCN)NC(=O)[C@H](C(C)C)NC(=O)[C@H](CC(C)C)NC4=O)C(=O)N[C@@H](CC(=O)O)C(=O)NCC(=O)N[C@@H](CCCNC(=N)N)C(=O)N[C@@H](CCC(=O)O)C(=O)N[C@@H](CCCNC(=N)N)C(=O)N[C@@H](CC(=O)O)C(=O)N6)NC(=O)[C@H](CCC(=O)O)NC(=O)[C@H](CC(C)C)NC(=O)CNC(=O)[C@H](C)NC5=O)[C@@H](C)CC)C(C)C)NC(=O)[C@H](C(C)C)NC(=O)[C@H](CCC(=O)O)NC(=O)[C@H](Cc4ccccc4)NC(=O)[C@H](CO)NC(=O)[C@H](Cc4c[nH]cn4)NC(=O)[C@H](CCCNC(=N)N)NC(=O)[C@H](CCCNC(=N)N)NC(=O)[C@H](CCCCN)NC(=O)[C@H](Cc4ccc(O)cc4)NC(=O)[C@H](CSSC[C@H](NC(=O)[C@H](CO)NC(=O)[C@H](CC(C)C)NC(=O)[C@H](Cc4c[nH]c5ccccc45)NC(=O)[C@H](CCCCN)NC(=O)[C@H](CCCNC(=N)N)NC1=O)C(=O)N[C@@H](C(C)C)C(=O)N[C@@H](CC(=O)O)C(=O)N[C@@H](CCCNC(=N)N)C(=O)N[C@@H](CCCCN)C(=O)N[C@@H](CC(N)=O)C(=O)N[C@@H](CC(=O)O)C(=O)N3)NC(=O)[C@H](CCC(=O)O)NC(=O)[C@H](CC(C)C)NC(=O)CNC(=O)[C@H](CCC(=O)O)NC2=O [Hi1a]
- Activity on F350A mutant of rASIC1a (F350A mutant rASIC1a): no activity
- IC50 (hASIC1a): 0.59 ± 0.14 nM
- Rapidly reversible inhibition (hASIC1a; Table 1, upon washout): No
- Effect on pH50 of activation (hASIC1a; peptide applied at pH 7.45, concentration-dependent): shifted to slightly lower values
- Effect on steady-state desensitisation (SSD) curve (hASIC1a; two concentrations of peptide): pH-independent decrease in the maximum current
- Effect on rASIC2a current (rASIC2a; 30 nM at pH 7.45): minimal effect
- Effect on rASIC2a current (rASIC2a; 1 μM at pH 7.45): no effect
- Effect on rASIC3 current (rASIC3; 30 nM at pH 7.45): minimal effect
- Effect on rASIC3 current (rASIC3; 1 μM at pH 7.45): no effect
